These results are taken from US6511827B1 (Merck & Co., Inc., priority 1997, dated 2003).

By UniProt entry, the sequences of proteins in these tests, tags left out. Where a name states a change or a piece, a line headed by the entry shows the natural chain unless it says otherwise.
UniProt P47211: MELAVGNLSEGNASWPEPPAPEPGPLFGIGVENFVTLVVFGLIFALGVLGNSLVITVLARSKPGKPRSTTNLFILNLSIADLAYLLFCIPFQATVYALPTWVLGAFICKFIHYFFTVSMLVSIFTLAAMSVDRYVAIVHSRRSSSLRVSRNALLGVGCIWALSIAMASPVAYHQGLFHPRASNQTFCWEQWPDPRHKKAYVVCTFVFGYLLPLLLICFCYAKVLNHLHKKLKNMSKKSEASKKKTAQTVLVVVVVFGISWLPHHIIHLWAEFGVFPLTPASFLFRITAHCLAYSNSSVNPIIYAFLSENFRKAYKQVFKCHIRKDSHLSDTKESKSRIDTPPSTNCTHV

In general, IC50 refers to the concentration that inhibits the measured activity by half.

One experiment addresses T1, GALR1 (Homo sapiens, UniProt P47211).
T1 construct: host or cells: COS cells, transient expression (cited work)
To be noted: GALR1 transiently expressed in COS cells; cited from earlier work.

Experiment [1] has as its system human GALR3. As to the kind of experiment: Competition for ^125I-porcine galanin binding to membranes of COS-7 cells expressing clone GALR3-2. To be noted: clone GALR3-2, COS-7 membranes, ^125I-porcine galanin (70 pM), FIG. 7. On the procedure: (§1) Mammalian COS-7 cells were transfected by electroporation. COS-7 cells (1×10^7) were suspended in 0.85 ml of Ringers' buffer and […] of the GALR3-2 or GALR3—3 expression plasmid was added to a 0.4 mm electroporation cuvette (Bio-Rad, Hercules, Calif.). Current was applied ([…], 260 V) using a Bio-Rad Electroporator device and the cells were transferred to a T-180 flask (Corning). Expression was allowed to proceed for 72 hrs.
Membranes were prepared from transfected cells following dissociation in enzyme-free dissociation solution (Specialty Media, Lavallette, N.J.) by disruption in a Dounce homogenizer in ice-cold membrane buffer (10 mM Tris, pH 7.4, 10 mM PMSF, […], and […]). After a low speed (1100×g for 10 min. at 4° C.) and a high speed centrifugation (38,700×g for 15 min. at 4° C.), membranes were resuspended in buffer and protein concentration determined (Bio-Rad assay kit). […] Reactions were initiated by the addition of membranes and the incubation was allowed to proceed at room temperature for 1 hour. […] Titration of membrane protein from 1 to 50 μg was conducted. […] Incubations were terminated by rapid filtration through GF/C filters which had been presoaked with 0.1% polyethylamine using a TOMTEC (Orange, Conn.) cell harvester. The results were analyzed using the Prism software package (GraphPad, San Diego, Calif.).

The test system of experiment [2] is human GALR3. As to the kind of experiment: Specific binding of ^125I-galanin radioligands to membranes of COS-7 cells transfected with GALR3 clones, as a function of membrane protein. Here is the method: as §1
Membranes were prepared from transfected cells following dissociation in enzyme-free dissociation solution (Specialty Media, Lavallette, N.J.) by disruption in a Dounce homogenizer in ice-cold membrane buffer (10 mM Tris, pH 7.4, 10 mM PMSF, […], and […]). After a low speed (1100×g for 10 min. at 4° C.) and a high speed centrifugation (38,700×g for 15 min. at 4° C.), membranes were resuspended in buffer and protein concentration determined (Bio-Rad assay kit). Binding of ^125I-human or porcine galanin (specific activity of 2200 Ci/mmol, DuPont NEN) was measured in membranes using a buffer of 25 mM Tris pH 7.4, 0.5% BSA, 2 mM MgCl2, 40 μg/ml bacitracin, 4 mg/ml phosphoramidon, and 10 μM leupeptin in a total volume of 250 ml. 70 μM ^125I-human or porcine galanin was used. Transfected cells expressing plasmid GALR3—3 were bound with ^125I-human galanin whereas cells expressing plasmid GALR3-2 were bound with ^125I-porcine galanin. Reactions were initiated by the addition of membranes and the incubation was allowed to proceed at room temperature for 1 hour. Non-specific binding was defined as the amount of radioactivity remaining bound in the presence of 1 mM respectively unlabeled galanin and was generally not above 200 cpm (<10% of total radioactivity bound). Titration of membrane protein from 1 to 50 μg was conducted. In competition studies various concentrations of unlabeled human or porcine galanin were included along with ^125I-porcine galanin (70 pM) in cells expressing the GALR3-2 plasmid. Incubations were terminated by rapid filtration through GF/C filters which had been presoaked with 0.1% polyethylamine using a TOMTEC (Orange, Conn.) cell harvester. The results were analyzed using the Prism software package (GraphPad, San Diego, Calif.). The table below illustrates that both clones confer specific binding to COS-7 cells for both human and porcine galanin radioligands as a function of protein concentration. In COS-7 cells mock transfected with expression vector only (no GALR3 gene), no specific binding of either radioligand was observed.

Turning to Gal(1-16), the “times more active than pGAL(3-29) as an inhibitor of ^125I-porcine galanin binding” value with GALR1 is “at least 1000 times”.

porcine galanin returned an IC50 in the experiment with human GALR3 [1] of 16 nM.

As for ^125I-porcine galanin, the “Specific binding of radioligand” value is given as 695 cpm in the experiment with human GALR3 [2] (Clone GALR3-2, membrane protein 5 μg); 1134 cpm in the experiment with human GALR3 [2] (Clone GALR3-2, membrane protein 10 μg); 1763 cpm in the experiment on human GALR3 [2] (Clone GALR3-2, membrane protein 20 μg); 3728 cpm with human GALR3 [2] (Clone GALR3-2, membrane protein 50 μg).
